Laboratory results reported in patent US12083115B2, “Methods for treating neurological symptoms associated with lysosomal storage diseases” (Genzyme Corporation, priority 2020, dated 2024).

Protein sequences, listed by entry. Tags and fused reporters are not part of them. Lines headed by an entry give the natural chain unless they say otherwise; changes in a name come on top.
UniProt Q16739: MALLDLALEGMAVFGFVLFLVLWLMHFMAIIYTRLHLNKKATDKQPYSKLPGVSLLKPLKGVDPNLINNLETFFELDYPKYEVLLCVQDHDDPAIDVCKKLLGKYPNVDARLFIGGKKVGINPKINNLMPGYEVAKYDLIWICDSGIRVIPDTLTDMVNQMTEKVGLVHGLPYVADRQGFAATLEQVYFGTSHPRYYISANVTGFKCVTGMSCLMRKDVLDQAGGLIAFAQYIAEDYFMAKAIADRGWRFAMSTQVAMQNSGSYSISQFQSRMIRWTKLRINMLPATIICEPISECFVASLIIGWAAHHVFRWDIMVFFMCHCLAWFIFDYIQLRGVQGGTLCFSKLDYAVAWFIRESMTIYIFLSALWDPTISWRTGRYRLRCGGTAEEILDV

Columns and labels:
[1] = target: glucosylceramide synthase (Homo sapiens (Human), UniProt Q16739); assay: Glucosylceramide synthase activity microsomal assay; format: biochemical; details: microsomes from A375 human melanoma cells; read-out: GCS IC50
Text: Inhibition of glucosylceramide synthase activity can be measured with one or more assays. A first assay is a microsomal assay that directly measures the conversion of ceramide to glucosylceramide by HPLC. Microsomes are a source of glucosylceramide synthase activity in the microsomal assay. A second assay is a cell based, phenotypic assay that monitors cell surface expression of the downstream lipid GM3 by antibody mediated immunofluorescence. Specific protocols are provided below.
An enzyme assay using microsomes as a source of glucosylceramide synthase activity. Fluorescent ceramide substrate is delivered to membrane-bound enzyme as a complex with albumin. After reaction, ceramide and glucosylceramide are separated and quantitated by reverse-phase HPLC with fluorescence detection. Enzymatic activity is assessed using a fluorescent labeled substrate and microsomes as a source of glucosylceramide synthase. […] Separation and quantitation of substrate and product (glucosylceramide) are achieved by reverse-phase HPLC with fluorescence detection. […]
The reaction is stopped by the addition of 150 μL of 100 μM C8-ceramide in 50% aq. isopropanol; 10 μL of the final mix is analyzed on HPLC (with fluorescence detector). […] Fluorescence is detected with λex=470 nm and λem=530 nm. […] The percent conversion of substrate to product is used as the readout for inhibitor testing. […]

[2] = Study 1 Part 1: ascending single-dose PK in healthy men; format: in vivo, human; details: for CL/F, Mean (SD): healthy men
Text: (§1) Study 1 was a 2-part single-center trial in healthy adult male volunteers. Part 1 was a double-blind, randomized, placebo-controlled sequential ascending single-dose study of Compound 2 for safety, tolerability, and PK. Part 2 was an open-label, single-cohort, randomized, 2-sequence, 2-period, 2-treatment crossover study of Compound 2 for PK with and without a high-fat meal.
Part 1 of the study enrolled and randomized 55 healthy men (placebo, n=14; 2-, 5-, 15, 25-, 50, and 100-mg doses, n=6 each; 150-mg dose, n=5). Eight healthy men participated in Part 2.
In Part 1, the subjects were randomized to receive 2, 5, 15, 25, 50, 100, or 150 mg of Compound 2 (L-malic salt form, i.e., expressed under L-malic salt form) or matching placebo on the morning of the first day after at least a 10-hour fast. In Part 2, the subjects were randomized to receive a single oral dose of 5 mg Compound 2 either while fasting (at least 10 hours before and 4 hours after administration) or 30 minutes after a standardized high-fat breakfast (˜815 kcal). […]
In Study 1, Part 1, blood was sampled for plasma concentrations of Compound 2 at the time of study drug administration (0 hour) and 0.5, 1, 2, 3, 4, 5, 6, 8, 10, 12, 16, 24, 48, 72, and 96 hours post-dose. Urine samples were collected for analysis of Compound 2 concentrations beginning 2 hours before study drug administration through 48 hours afterward.

[3] = Study 1 Part 2: PK with and without a high-fat meal; format: in vivo, human; details: 5 mg single dose
Method: as §1
In Part 1, the subjects were randomized to receive 2, 5, 15, 25, 50, 100, or 150 mg of Compound 2 (L-malic salt form, i.e., expressed under L-malic salt form) or matching placebo on the morning of the first day after at least a 10-hour fast. In Part 2, the subjects were randomized to receive a single oral dose of 5 mg Compound 2 either while fasting (at least 10 hours before and 4 hours after administration) or 30 minutes after a standardized high-fat breakfast (˜815 kcal). After a 7-day washout period, participants were crossed over to the other condition.
In Study 1, Part 2, blood was sampled for plasma concentrations if Compound 2 at 0, 0.5, 1, 2, 3, 4, 5, 6, 8, 10, 12, 16, 24, and 48 hours post-dose.

[4] = Study 2: ascending repeated-dose PK in healthy adults; format: in vivo, human
Method: (§2) Study 2 was a single-center, double-blind, randomized, placebo-controlled, sequential ascending repeated-dose study of the safety, tolerability, PK, and pharmacodynamics of Compound 2 in healthy adult male and female volunteers.
(§3) The study enrolled and randomized 36 healthy adults (19 men and 17 women) (n=9 each to group). The subjects were randomized to receive once-daily doses of Compound 2 at 5, 10, or 20 mg (provided as 5-mg capsules of the L-malic salt form) or placebo for 14 days after at least a 10-hour fast.
(§4) Blood was sampled for plasma concentrations of Compound 2 as follows: Day 1 at 0, 0.5, 1, 2, 3, 4, 5, 6, 8, 10, 12, and 16 hours post-dose; On Days 2-5, 8, 11, and 13, at 0 h; On Day 14, at 0.5, 1, 2, 3, 4, 5, 6, 8, 10, and 12 hours post-dose; On Days 15-17, at 24, 48, and 72 hours, respectively, after the Day 14 dose. Urine samples were collected for analysis of Compound 2 concentrations on Day 1 (0 hours post-dose) and continuously on Day 14 from 0-24 hours post-dose. Pharmacodynamic endpoints (plasma GL-1, GL-3, and GM3 concentrations) were assessed on Days 1-5, 8, 11, 13, and 14, at 0 hours […]; and on Day 15, at 24 hours after the Day 14 dose.

[5] = system: plasma GL-1 (glucosylceramide); assay: Study 2: plasma GL-1 pharmacodynamics; format: in vivo, human; details: Day 15
Method: as §2, §3, §4

[6] = system: plasma GL-3 (globotriaosylceramide); assay: Study 2: plasma GL-3 pharmacodynamics; format: in vivo, human; details: Day 15
Method: as §2, §3, §4

[7] = system: plasma GM3 (GM3 ganglioside); assay: Study 2: plasma GM3 pharmacodynamics; format: in vivo, human; details: Day 15
Method: as §2, §3, §4

[8] = 75-fold dose increase (2 to 150 mg)
[9] = Day 14, 4-fold dose increase (5-20 mg)

## CC(C)(NC(=O)O[C@@H]1CN2CCC1CC2)c1csc(-c2ccc(F)cc2)n1 [Compound 2, (S)-quinuclidin-3-yl 2-(2-(4-fluorophenyl)thiazol-4-yl)propan-2-ylcarbamate]
[1]
  IC50: 60.1 µM
[2]; 2 mg single dose, N = 6
  CL/F, Mean (SD): 6.43 (1.41) L/h
[2]; 5 mg single dose, N = 6
  CL/F, Mean (SD): 5.86 (1.01) L/h
[2]; 15 mg single dose, N = 6
  CL/F, Mean (SD): 5.85 (1.89) L/h
[2]; 25 mg single dose, N = 6
  CL/F, Mean (SD): 5.18 (1.31) L/h
[2]; 50 mg single dose, N = 6
  CL/F, Mean (SD): 5.75 (2.01) L/h
[2]; 100 mg single dose, N = 6
  CL/F, Mean (SD): 5.38 (1.25) L/h
[2]; 150 mg single dose, N = 5
  CL/F, Mean (SD): 5.80 (1.55) L/h
[2]; [8]
  fold increase in geometric mean AUCinf: 85.9 fold
  fold increase in geometric mean AUClast: 89.2 fold
  fold increase in geometric mean Cmax: 97.3 fold
[3]
  Fed/fasted geometric mean ratio, AUClast: 0.91
  Fed/fasted geometric mean ratio, Cmax: 0.92
[4]; After 14 once-daily doses, 5-20 mg
  CLR(0-24) fold lower than observed plasma CL/F: 3.18-3.86 fold
[4]; [9]
  fold increase in geometric mean AUC0-24: 3.69 fold
  fold increase in geometric mean Cmax: 3.76 fold
[5]; 5 mg vs placebo
  GL-1, point estimate of treatment ratio: 0.39
[5]; 10 mg vs placebo
  GL-1, point estimate of treatment ratio: 0.32
[5]; 20 mg vs placebo
  GL-1, point estimate of treatment ratio: 0.23
[6]; 5 mg vs placebo
  GL-3, point estimate of treatment ratio: 0.61
[6]; 10 mg vs placebo
  GL-3, point estimate of treatment ratio: 0.69
[6]; 20 mg vs placebo
  GL-3, point estimate of treatment ratio: 0.67
[7]; 5 mg vs placebo
  GM3, point estimate of treatment ratio: 0.56
[7]; 10 mg vs placebo
  GM3, point estimate of treatment ratio: 0.49
[7]; 20 mg vs placebo
  GM3, point estimate of treatment ratio: 0.40
